Data reported in US8222219B2, “Glucopyranoside compound” (Mitsubishi Tanabe Pharma Corporation, priority 2003, dated 2012).
pIC50: −log10 of the molar value.

Amino acid sequences for entries named in this document (tags omitted).
UniProt P31639, whole entry: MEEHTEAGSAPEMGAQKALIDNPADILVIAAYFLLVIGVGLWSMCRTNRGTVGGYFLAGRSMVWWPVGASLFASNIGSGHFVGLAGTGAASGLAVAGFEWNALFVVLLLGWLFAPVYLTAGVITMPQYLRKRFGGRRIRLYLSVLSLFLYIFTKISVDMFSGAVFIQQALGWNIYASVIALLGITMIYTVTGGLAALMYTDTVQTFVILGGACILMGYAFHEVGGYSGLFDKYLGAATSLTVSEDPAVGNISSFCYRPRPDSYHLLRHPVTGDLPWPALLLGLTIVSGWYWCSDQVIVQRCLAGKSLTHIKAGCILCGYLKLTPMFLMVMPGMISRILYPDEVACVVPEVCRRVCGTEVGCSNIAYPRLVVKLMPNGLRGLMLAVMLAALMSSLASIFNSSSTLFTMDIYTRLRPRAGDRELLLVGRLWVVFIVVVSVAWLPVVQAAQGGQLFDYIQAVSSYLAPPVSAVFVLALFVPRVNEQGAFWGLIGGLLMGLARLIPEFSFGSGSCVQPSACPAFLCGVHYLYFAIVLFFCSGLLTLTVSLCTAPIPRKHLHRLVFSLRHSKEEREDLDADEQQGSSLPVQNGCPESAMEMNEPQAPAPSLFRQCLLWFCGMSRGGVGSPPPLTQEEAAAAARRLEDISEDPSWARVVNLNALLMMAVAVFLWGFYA

tested on: Sprague-Dawley (SD) rats; assay: Urinary glucose excretion test in rats; settings: male SD rats, 30 mg/kg oral gavage, urine collected for 24 hours; daily amount of glucose excreted per individual

Compound | Urinary glucose
OC[C@H]1O[C@@H](c2ccc(Cl)c(Cc3cc4ccc(OC(F)F)cc4s3)c2)[C@H](O)[C@@H](O)[C@@H]1O | A (A≧2000 mg)
N#Cc1ccc(-c2ccc(Cc3cc([C@@H]4O[C@H](CO)[C@@H](O)[C@H](O)[C@H]4O)ccc3Cl)s2)cc1 | A (A≧2000 mg)
OC[C@H]1O[C@@H](c2ccc(Cl)c(Cc3ccc(-c4cccc(OC(F)F)c4)s3)c2)[C@H](O)[C@@H](O)[C@@H]1O | B (2000 mg>B≧1000 mg)
OC[C@H]1O[C@@H](c2ccc(Cl)c(Cc3ccc(-c4ccc(OC(F)F)cc4)s3)c2)[C@H](O)[C@@H](O)[C@@H]1O | B (2000 mg>B≧1000 mg)
OC[C@H]1O[C@@H](c2ccc(Cl)c(Cc3ccc(-c4cccc(Cl)n4)s3)c2)[C@H](O)[C@@H](O)[C@@H]1O | A (A≧2000 mg)
OC[C@H]1O[C@@H](c2ccc(Cl)c(Cc3ccc(-c4cccnc4F)s3)c2)[C@H](O)[C@@H](O)[C@@H]1O | A (A≧2000 mg)
N#Cc1cccc(-c2ccc(Cc3cc([C@@H]4O[C@H](CO)[C@@H](O)[C@H](O)[C@H]4O)ccc3Cl)s2)n1 | B (2000 mg>B≧1000 mg)
OC[C@H]1O[C@@H](c2ccc(Cl)c(Cc3ccc(-c4ccc(F)s4)s3)c2)[C@H](O)[C@@H](O)[C@@H]1O | A (A≧2000 mg)
OC[C@H]1O[C@@H](c2ccc(Cl)c(Cc3cc4cc(OCCF)ccc4s3)c2)[C@H](O)[C@@H](O)[C@@H]1O | B (2000 mg>B≧1000 mg)

molecular target: human SGLT2 (Homo sapiens, UniProt P31639); assay: Assay for SGLT2 inhibition (14C-AMG uptake in CHOK1 cells expressing human SGLT2); settings: 14C-AMG uptake 0.5 mM, 2 hours at 37° C.

Compound | pIC50
OC[C@H]1O[C@@H](c2ccc(Cl)c(Cc3ccc(-c4ccc(F)c(F)c4)s3)c2)[C@H](O)[C@@H](O)[C@@H]1O | 8.06
OC[C@H]1O[C@@H](c2ccc(Cl)c(Cc3cc4ccc(OC(F)F)cc4s3)c2)[C@H](O)[C@@H](O)[C@@H]1O | 8.51
CC(C)NC(=O)c1ccc(-c2ccc(Cc3cc([C@@H]4O[C@H](CO)[C@@H](O)[C@H](O)[C@H]4O)ccc3Cl)s2)cc1 | 8.64
COc1cccc(-c2ccc(Cc3cc([C@@H]4O[C@H](CO)[C@@H](O)[C@H](O)[C@H]4O)ccc3Cl)s2)c1 | 8.62
N#Cc1ccc(-c2ccc(Cc3cc([C@@H]4O[C@H](CO)[C@@H](O)[C@H](O)[C@H]4O)ccc3Cl)s2)cc1 | 8.77
OC[C@H]1O[C@@H](c2ccc(Cl)c(Cc3ccc(-c4cccc(OC(F)F)c4)s3)c2)[C@H](O)[C@@H](O)[C@@H]1O | 8.26
CCOc1ccc2sc(Cc3cc([C@@H]4O[C@H](CO)[C@@H](O)[C@H](O)[C@H]4O)ccc3Cl)cc2c1 | 8.25
OC[C@H]1O[C@@H](c2ccc(Cl)c(Cc3ccc(-c4ccc(OC(F)F)cc4)s3)c2)[C@H](O)[C@@H](O)[C@@H]1O | 8.36
OC[C@H]1O[C@@H](c2ccc(Cl)c(Cc3ccc(-c4cccc(Cl)n4)s3)c2)[C@H](O)[C@@H](O)[C@@H]1O | 8.44
OC[C@H]1O[C@@H](c2ccc(Cl)c(Cc3ccc(-c4cccnc4F)s3)c2)[C@H](O)[C@@H](O)[C@@H]1O | 8.60
O=[N+]([O-])c1ccc(-c2ccc(Cc3cc([C@@H]4O[C@H](CO)[C@@H](O)[C@H](O)[C@H]4O)ccc3Cl)s2)cc1 | 8.48
N#Cc1cccc(-c2ccc(Cc3cc([C@@H]4O[C@H](CO)[C@@H](O)[C@H](O)[C@H]4O)ccc3Cl)s2)n1 | 8.92
OC[C@H]1O[C@@H](c2ccc(Cl)c(Cc3ccc(-c4ccc(F)s4)s3)c2)[C@H](O)[C@@H](O)[C@@H]1O | 8.25
NC(=O)c1cccc(-c2ccc(Cc3cc([C@@H]4O[C@H](CO)[C@@H](O)[C@H](O)[C@H]4O)ccc3Cl)s2)c1 | 8.77
OC[C@H]1O[C@@H](c2ccc(Cl)c(Cc3cc4cc(OCCF)ccc4s3)c2)[C@H](O)[C@@H](O)[C@@H]1O | 8.54
Cc1cc(-c2ccc(Cc3cc([C@@H]4O[C@H](CO)[C@@H](O)[C@H](O)[C@H]4O)ccc3Cl)s2)on1 | 8.34
N#Cc1cc(-c2ccc(Cc3cc([C@@H]4O[C@H](CO)[C@@H](O)[C@H](O)[C@H]4O)ccc3Cl)s2)ccc1F | 8.37
